One test deals with D3 receptor (Rattus norvegicus, UniProt P19020). Briefly: Interaction with D3 receptor, 3H-7-OH-DPAT radioligand binding, olfactory tubule.
A further test concerns 5-HT2 versus D2 receptor. Nature of the test: Classification of typical and atypical antipsychotics by 5-HT2 versus D2 pKi ratio and Log Y score.
For a further test, the target named is T1, D1 receptor (Rattus norvegicus, UniProt P18901).
T1 construct: was studied using various different cerebral areas (striate D1 and D2; olfactory tubule D3; prefrontal cortex 5HT2a); from tissue; host or cells: striatum ('striate')
Briefly: Interaction with D1 receptor, [3H]-SCH 23390 radioligand binding, striate. As to conditions: Table 2; read-out: D1 Ki (nM) ± ds.

Sequences of proteins named here, by UniProt entry; tags and fusion partners are left off.
UniProt P19020, whole entry: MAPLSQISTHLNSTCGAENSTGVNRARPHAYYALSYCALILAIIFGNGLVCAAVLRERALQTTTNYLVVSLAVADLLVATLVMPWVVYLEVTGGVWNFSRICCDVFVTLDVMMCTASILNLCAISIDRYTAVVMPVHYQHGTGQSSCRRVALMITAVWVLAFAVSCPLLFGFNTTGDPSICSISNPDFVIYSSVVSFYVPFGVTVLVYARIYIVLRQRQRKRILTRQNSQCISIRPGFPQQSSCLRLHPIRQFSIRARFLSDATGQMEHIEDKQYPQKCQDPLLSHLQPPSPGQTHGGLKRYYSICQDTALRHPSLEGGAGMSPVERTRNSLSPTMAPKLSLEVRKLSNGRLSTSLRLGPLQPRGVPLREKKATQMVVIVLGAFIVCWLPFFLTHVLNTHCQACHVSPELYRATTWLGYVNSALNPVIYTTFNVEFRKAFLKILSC
UniProt P18901, whole entry: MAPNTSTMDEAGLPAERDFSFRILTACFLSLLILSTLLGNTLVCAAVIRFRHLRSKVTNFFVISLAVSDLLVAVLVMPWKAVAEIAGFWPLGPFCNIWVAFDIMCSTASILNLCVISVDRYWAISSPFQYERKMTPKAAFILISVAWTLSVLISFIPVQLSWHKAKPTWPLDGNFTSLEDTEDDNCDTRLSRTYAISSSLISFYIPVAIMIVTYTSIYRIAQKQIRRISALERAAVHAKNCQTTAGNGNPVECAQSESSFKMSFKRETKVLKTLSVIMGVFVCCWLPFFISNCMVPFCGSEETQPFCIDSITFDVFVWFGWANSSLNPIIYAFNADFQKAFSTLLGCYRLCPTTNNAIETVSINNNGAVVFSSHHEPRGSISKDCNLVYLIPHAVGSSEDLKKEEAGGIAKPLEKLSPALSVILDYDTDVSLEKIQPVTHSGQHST
UniProt P14842, whole entry: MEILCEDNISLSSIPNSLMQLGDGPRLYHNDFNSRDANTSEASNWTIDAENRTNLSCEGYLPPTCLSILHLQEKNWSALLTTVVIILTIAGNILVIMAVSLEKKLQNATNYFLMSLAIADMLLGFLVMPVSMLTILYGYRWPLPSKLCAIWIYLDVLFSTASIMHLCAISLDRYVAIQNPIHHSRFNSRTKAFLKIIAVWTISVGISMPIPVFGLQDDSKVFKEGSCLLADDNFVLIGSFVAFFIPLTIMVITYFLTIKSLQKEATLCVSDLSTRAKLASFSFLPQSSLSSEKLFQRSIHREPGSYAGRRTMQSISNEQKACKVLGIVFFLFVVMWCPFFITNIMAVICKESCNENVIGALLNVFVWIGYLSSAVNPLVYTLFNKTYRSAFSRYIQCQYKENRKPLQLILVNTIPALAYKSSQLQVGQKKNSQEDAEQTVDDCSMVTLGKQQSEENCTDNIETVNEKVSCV

Another test has as its target 5HT2a receptor (Rattus norvegicus, UniProt P14842). Briefly: Interaction with 5HT2a receptor, 3H-ketanserine radioligand binding, prefrontal cortex. As to conditions: Table 3; read-out: 5-HT2a pKi (converted).

This is an account of results in US6710041B2, “Pyrrolo[2,1-B][3,1] benzothiazepines and their use for the preparation of medicaments with antipsychotic activity” (Sigma-Tau Industrie Farmaceutiche Riunite S.p.A., priority 2003, dated 2004).

Each structure is given as a SMILES string.

With `CN1CCN(C2=Cn3cccc3Sc3ccccc32)CC1` [ST1899, 9-(4-Methylpiperazin-1-yl) Pyrolo [2,1-b][1,3]benzothiazepine], the values for the Ki on D3 receptor and at D1 receptor were 8 ± 0.5 nM and 19 ± 1.3 nM, respectively. Further, the LogY in the test on 5-HT2 versus D2 receptor (Log Y score smaller than 6.48 = atypical profile) is on record as 4.98. For the same molecule, the “binding affinity at 5 HT2 receptor compared with D2 dopamine receptor” value with 5-HT2 versus D2 receptor (in words) was “greater than D2 dopamine receptor”.

Consider `Cc1ccc2n1C=C(N1CCN(C)CC1)c1ccccc1S2` [ST2092, 1-Methyl-9-(4-methylpiperazin-1-yl)pyrrolo[2,1-b][1,3]benzothiazepine], for which the Ki on 5HT2a receptor is 1.12 nM.
